Results taken from PMC12084609, “Structural insights into small-molecule agonist recognition and activation of complement receptor C3aR” (The EMBO Journal, 2025).

Molecular target: T1, C3aR WT (Homo sapiens, UniProt Q16581)
T1 construct: expressed in transfected cells; host or cells: HEK293T
T1 sequence (Q16581 1-482): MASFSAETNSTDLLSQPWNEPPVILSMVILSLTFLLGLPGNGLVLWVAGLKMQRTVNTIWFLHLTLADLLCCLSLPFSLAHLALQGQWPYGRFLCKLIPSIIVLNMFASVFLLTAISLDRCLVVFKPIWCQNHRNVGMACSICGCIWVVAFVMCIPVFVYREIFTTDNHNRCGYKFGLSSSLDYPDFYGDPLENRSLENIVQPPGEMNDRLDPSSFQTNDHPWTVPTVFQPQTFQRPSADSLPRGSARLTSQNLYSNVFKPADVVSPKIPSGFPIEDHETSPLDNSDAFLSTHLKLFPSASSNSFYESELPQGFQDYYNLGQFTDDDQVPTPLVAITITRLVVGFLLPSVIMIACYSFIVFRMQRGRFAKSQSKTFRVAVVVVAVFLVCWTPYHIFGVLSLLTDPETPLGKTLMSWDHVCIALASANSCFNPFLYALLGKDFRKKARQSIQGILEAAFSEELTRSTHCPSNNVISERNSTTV
Test: GloSensor-based cAMP assay, WT C3aR (HEK293T)
Assay type: cell-based
Conditions: for remaining activity at 1 µM: Log[ligand (M)] -6; for remaining activity at 0.001 µM: Log[ligand (M)] -9; for remaining activity at 0.0001 µM: Log[ligand (M)] -10; for remaining activity at 10 pM: Log[ligand (M)] -11; for pIC50 ± SEM (Mean) / pIC50 Value / IC50: WT C3aR; for pIC50 ± SEM (Mean): 1 μM Forskolin, mean of independent experiments; for pIC50 Value / IC50 / Span Value: Figure EV1B numerical data; for pIC50 Value: curve fit; for IC50: concentrations of the table as Log[ligand (M)]; for Span Value: span of cAMP response (% Forskolin) curve
Experimental: HEK293T cells were seeded on 6-well plates (NEST) and transfected with pGlosensor™-22F plasmids (Promega) and pcDNA3.1 plasmids encoding C3aR or its mutants an with N-terminal FLAG tag. After 48 h, cells were detached with Accutase solution (Sigma-Aldrich) and washed with PBS, and resuspended in assay buffer (CO2-independent medium with 0.5 mg mL^−1D-luciferin). 100,000–200,000 cells were seeded on 96-well white bottom plates (SPL) and incubated at 37 °C for 45 min followed by 45 min incubation at room temperature. After 90 min of incubation, basal luminescence signals were recorded. In total, 25 μl of test ligand with various concentrations and 1 μM Forskolin (Sigma-Aldrich) were treated to the cells and luminescence signals were measured by Tristar 2 LB 942 multimode reader (Berthold). […] Relative luminescence unit (%) was calculated with the signal of wells treated with vehicle as 0% and the signal of wells treated with 1 μM Forskolin as 100% (DiRaddo et al, [2014]). Nonlinear regression was performed using a three-parameter logistic equation.

[1] = HEK-293T, individual replicates, read-out: cAMP response (% Forskolin)

| Structure (SMILES) | remaining activity at 1 µM [1] [%] | remaining activity at 0.01 µM (HEK-293T, Log[ligand (M)] -8, individual replicates, read-out: cAMP response (% Forskolin)) [%] | remaining activity at 0.001 µM [1] [%] | remaining activity at 0.0001 µM [1] [%] | remaining activity at 10 pM [1] [%] | pIC50 ± SEM (Mean) | pIC50 Value | IC50 [M] | Span Value | remaining activity at 0.1 µM (HEK-293T, Log[ligand (M)] -7, individual replicates, read-out: cAMP response (% Forskolin)) [%] |
| --- | --- | --- | --- | --- | --- | --- | --- | --- | --- | --- |
| CSCC[C@H](NC(=O)[C@@H]1CCCN1C(=O)[C@H](CCCCN)NC(=O)[C@H](Cc1ccccc1)NC(=O)[C@H](CO)NC(=O)[C@@H](N)Cc1ccc(O)cc1)C(=O)N1CCC[C@H]1C(=O)N[C@@H](CC(C)C)C(=O)N[C@H](C)C(=O)N[C@@H](CCCNC(=N)N)C(=O)O [EP54, reference compound] | 15.8 | 50.9 | 86.1 | 96.2 | 101 | 8.27 ± 0.07 | 8.25 | 5.56e-09 | 86.79 |  |
| CC(C)C[C@H](NC(=O)CNC(=O)[C@H](CC(C)C)NC(=O)[C@H](Cc1c[nH]cn1)NC(=O)[C@H](CO)NC(=O)[C@H](C)NC(=O)[C@H](CCCNC(=N)N)NC(=O)[C@H](C)NC(=O)[C@H](Cc1c[nH]cn1)NC(=O)[C@H](CCC(N)=O)NC(=O)[C@H](CCCNC(=N)N)NC(=O)[C@H](CCCNC(=N)N)NC(=O)[C@@H](N)CC(C)C)C(=O)N[C@@H](C)C(=O)N[C@@H](CCCNC(=N)N)C(=O)O [C3a 63-77, reference compound] | 17 |  | 96 | 105 | 99.7 | 7.31 ± 0.12 | 7.70 | 1.99e-08 | 87.38 | 30.4 |
